Like-named read-outs stand apart in the source and are kept apart here.
Experiments:
Assay type in all cases: binding
SMARCA2 [1] = biological target: T1, SMARCA2 (Homo sapiens (Human), UniProt P51531); assay: DSF selectivity profiling
SMARCA4 = SMARCA4 (Homo sapiens (Human), UniProt P51532); assay: Isothermal titration calorimetry (ITC)
SMARCA2 [2] = biological target: T1, SMARCA2; assay: Isothermal titration calorimetry (ITC)
PBRM1-BD2 = PBRM1-BD2 (Homo sapiens (Human), UniProt Q86U86)

Chains of the proteins cited; added tags and fusions are not shown. Residues count along the entry.
UniProt P51531, 1378-1506: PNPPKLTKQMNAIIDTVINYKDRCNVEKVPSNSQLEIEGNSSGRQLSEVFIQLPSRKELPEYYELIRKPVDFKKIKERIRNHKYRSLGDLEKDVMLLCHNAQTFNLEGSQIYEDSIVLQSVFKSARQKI
UniProt P51532, 1453-1564: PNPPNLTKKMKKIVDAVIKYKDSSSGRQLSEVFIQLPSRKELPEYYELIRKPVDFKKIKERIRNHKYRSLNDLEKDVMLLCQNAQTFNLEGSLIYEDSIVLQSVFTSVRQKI
UniProt Q86U86, 177-287: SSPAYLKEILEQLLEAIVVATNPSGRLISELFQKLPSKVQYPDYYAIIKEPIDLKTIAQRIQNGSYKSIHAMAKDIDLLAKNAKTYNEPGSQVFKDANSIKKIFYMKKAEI

Question: For CCC(/C=C1\CCn2c1nc(=O)c1c(Cl)cccc12)CC [Compound 7, (E)-6-Chloro-3-(2-ethylbutylidene)-2,3-dihydropyrrolo[1,2-a]quinazolin-5(1H)-one, reference compound], which “SMARCA2 ΔTm” value (SMARCA2 [1]) is on record?
Answer: Its value is over 3 °C.

Question: What about the Kd (SMARCA4) of the same molecule?
Answer: The Kd was 5.03 µM.

Question: Which Kd (SMARCA2 [2]) does the source give for O=C1NC(c2c(F)cccc2Cl)Nc2cccc(Cl)c21 (stereo not drawn) [Compound 11, 5-Chloro-2-(2-chloro-6-fluorophenyl)-2,3-dihydroquinazolin-4(1H)-one] here?
Answer: The Kd was 18.4 ± 9.9 µM.

Question: Which results are given for CC1CC(=O)NN=C1c1cccs1 (stereo not drawn) [Compound 6g]?
Answer: LE (Ligand Efficiency) (PBRM1-BD2): 0.3; Kd (PBRM1-BD2; NMR titration, chemical shift perturbations vs fragment concentration): 1210 ± 267 µM

Question: O=C1NC(c2c(F)cccc2Cl)Nc2ccccc21 (stereo not drawn) [Compound 5, 2-(2-Chloro-6-fluorophenyl)-2,3-dihydroquinazolin-4(1H)-one] was tested. Which Kd (SMARCA2 [2]; ITC, NB = did not bind) did it give?
Answer: The Kd was 15.9 ± 9.73 µM.

Reference: patent US20240190828A1, “Small Molecule Inhibitors of PBRM1-BD2” (The Medical College of Wisconsin, Inc., priority 2021, published 2024)
